Data on nine molecules can be found in ChEMBL document CHEMBL1137052 (Bioorg Med Chem Lett, 2004).

By UniProt entry, the sequences of proteins in these tests, tags left out.
UniProt P35367, whole entry: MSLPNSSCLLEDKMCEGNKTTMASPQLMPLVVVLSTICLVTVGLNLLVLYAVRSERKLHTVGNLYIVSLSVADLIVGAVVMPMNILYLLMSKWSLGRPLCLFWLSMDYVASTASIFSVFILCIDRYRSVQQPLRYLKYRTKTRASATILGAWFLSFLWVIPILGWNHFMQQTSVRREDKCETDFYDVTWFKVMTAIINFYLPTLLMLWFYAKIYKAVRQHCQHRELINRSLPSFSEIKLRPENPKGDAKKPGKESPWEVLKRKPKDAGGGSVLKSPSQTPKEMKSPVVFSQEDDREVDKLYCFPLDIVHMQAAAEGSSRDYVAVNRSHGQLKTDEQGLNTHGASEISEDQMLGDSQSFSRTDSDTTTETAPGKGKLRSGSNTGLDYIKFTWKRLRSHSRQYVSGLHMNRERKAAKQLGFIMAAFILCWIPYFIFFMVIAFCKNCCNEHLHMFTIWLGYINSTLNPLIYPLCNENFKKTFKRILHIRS

The target of this experiment is Histamine H1 receptor (Homo sapiens, UniProt P35367). The experiment is described as follows: biochemical. The class given is cell-based, CHO-K1.
What is called Ki is a dissociation constant, usually derived from enzyme kinetics or from competition with a known ligand. A higher Ki goes with lower affinity. In turn, `NC(=O)N(O)CCC#Cc1ccc(OCCCN2CCN([C@H](c3ccccc3)c3ccc(Cl)cc3)CC2)cc1` had a Ki of 9 nM.
Turning to `NC(=O)N(O)CCC#Cc1ccc(OCCCCN2CCN([C@H](c3ccccc3)c3ccc(Cl)cc3)CC2)cc1`, the affinity, expressed as Ki, was 30 nM.
The value for `NC(=O)N(O)CCC#Cc1ccc(OCCCCN2CCC(=C3c4ccc(Cl)cc4CCc4cccnc43)CC2)cc1` was 50 nM; that for `NC(=O)N(O)CCC#Cc1ccc(OCCCN2CCN(C(c3ccc(F)cc3)c3ccc(F)cc3)CC2)cc1` was 109 nM; that for `NC(=O)N(O)CCC#Cc1ccc(OCCCCN2CCN(C(c3ccc(F)cc3)c3ccc(F)cc3)CC2)cc1` was 26 nM.
The value for `NC(=O)N(O)CCC#Cc1ccc(OCCCN2CCC(=C3c4ccc(Cl)cc4CCc4cccnc43)CC2)cc1` was 14 nM; that for `NC(=O)N(O)CCC#Cc1ccc(OCCN2CCN([C@H](c3ccccc3)c3ccc(Cl)cc3)CC2)cc1` was 305 nM.
In the case of `NC(=O)N(O)CCC#Cc1ccc(OCCN2CCN(C(c3ccc(F)cc3)c3ccc(F)cc3)CC2)cc1`, the affinity corresponds to a Ki of 295 nM.
The value for `NC(=O)N(O)CCC#Cc1ccc(OCCN2CCC(=C3c4ccc(Cl)cc4CCc4cccnc43)CC2)cc1` was 19 nM.
